Test results reported in patent publication US4169096A, “Antibiotic compounds” (priority 1977, dated 1979).

What was measured:
[1] = test system: Peptocuccus prevotii ATCC 9321; test: microbe, parasite or virus in culture
[2] = test system: Fusobacterium varium ATCC 8501; test: microbe, parasite or virus in culture; conditions: ATCC8501

COC(=O)C1C(C)OC2(C)CC(=O)C3OC12OC(C(C)/C=C(C)/C=C/C(=O)C1=C(O)CNC1=O)C3C (centres unmarked) [Bu-2313B]
MIC [1]: 0.1 µg/mL (≈ 0.199 µM)
MIC [2]: 0.1 µg/mL (≈ 0.199 µM)

Values after ≈ are worked out from the molar mass of the structure shown.
